Reference: PMC10568492 (2023)

Protein sequences, listed by entry. Tags and fused reporters are not part of them. Lines headed by an entry give the natural chain unless they say otherwise; changes in a name come on top.
UniProt P10275: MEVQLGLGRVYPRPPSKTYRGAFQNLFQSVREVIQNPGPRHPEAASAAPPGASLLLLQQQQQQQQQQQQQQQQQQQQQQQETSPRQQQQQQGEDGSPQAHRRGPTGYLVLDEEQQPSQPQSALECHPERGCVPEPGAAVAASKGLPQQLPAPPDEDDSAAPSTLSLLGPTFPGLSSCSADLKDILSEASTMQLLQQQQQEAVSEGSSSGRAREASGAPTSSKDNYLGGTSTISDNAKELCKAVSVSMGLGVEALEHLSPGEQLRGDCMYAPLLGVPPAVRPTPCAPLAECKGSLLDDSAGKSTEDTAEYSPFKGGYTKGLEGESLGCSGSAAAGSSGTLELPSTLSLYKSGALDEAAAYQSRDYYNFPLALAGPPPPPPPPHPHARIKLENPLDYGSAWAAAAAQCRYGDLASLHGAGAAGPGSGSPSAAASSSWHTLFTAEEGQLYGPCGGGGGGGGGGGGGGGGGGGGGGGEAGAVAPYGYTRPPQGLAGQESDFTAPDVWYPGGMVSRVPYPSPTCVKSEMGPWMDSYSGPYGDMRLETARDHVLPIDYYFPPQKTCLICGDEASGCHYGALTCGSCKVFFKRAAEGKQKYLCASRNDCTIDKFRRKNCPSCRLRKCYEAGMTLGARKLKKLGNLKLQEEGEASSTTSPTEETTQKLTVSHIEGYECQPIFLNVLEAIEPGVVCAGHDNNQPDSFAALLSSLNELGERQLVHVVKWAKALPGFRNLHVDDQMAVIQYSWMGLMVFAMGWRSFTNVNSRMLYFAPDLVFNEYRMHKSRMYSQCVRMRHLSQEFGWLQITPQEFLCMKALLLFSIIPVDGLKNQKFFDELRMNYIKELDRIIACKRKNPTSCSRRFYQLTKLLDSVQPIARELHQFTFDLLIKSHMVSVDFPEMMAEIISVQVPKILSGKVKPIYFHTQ

Molecular target: AR protein (Homo sapiens, UniProt P10275)
Assay: AR protein degradation in VCaP cells, Western blotting
Conditions: 24 hr

Substance | % AR protein degradation in VCaP Cells (0.01 μM) | % AR protein degradation in VCaP Cells (0.1 μM) | % AR protein degradation in VCaP Cells (1 μM)
2-chloro-4-(8-(4-(4-((1-(2-(2,6-dioxopiperidin-3-yl)-1,3-dioxoisoindolin-5-yl)piperidin-4-yl)methyl)piperazin-1-yl)benzoyl)-2,8-diazaspiro[4.5]decan-2-yl)benzonitrile [Compound 16] | minimal effect | minimal effect | minimal effect
2-chloro-4-(8-(4-(5-(1-(2-(2,6-dioxopiperidin-3-yl)-1,3-dioxoisoindolin-5-yl)piperidin-4-yl)-1,5-diazocane-1-carbonyl)phenyl)-2,8-diazaspiro[4.5]decan-2-yl)benzonitrile [Compound 23] | 23% | 80% | 90%
2-chloro-4-(8-(4-(7-(1-(2-(2,6-dioxopiperidin-3-yl)-1,3-dioxoisoindolin-5-yl)piperidin-4-yl)-3,7-diazabicyclo[3.3.1]nonane-3-carbonyl)phenyl)-2,8-diazaspiro[4.5]decan-2-yl)benzonitrile [Compound 22] | <5% | 54% | 54%
2-chloro-4-(8-(4-(4-(4-(2-(2,6-dioxopiperidin-3-yl)-1,3-dioxoisoindolin-5-yl)piperazin-1-yl)piperidin-1-yl)benzoyl)-2,8-diazaspiro[4.5]decan-2-yl)benzonitrile [Compound 20] | 37% | 20% | >95%
2-chloro-4-((3S)-8-(4-(4-((1-(2-(2,6-dioxopiperidin-3-yl)-1,3-dioxoisoindolin-5-yl)piperidin-4-yl)methyl)piperazine-1-carbonyl)phenyl)-3-methyl-2,8-diazaspiro[4.5]decan-2-yl)benzonitrile [Compound 40] | 81% | >95% | >95%
2-chloro-4-((3S)-8-(4-(1'-(2-(2,6-dioxopiperidin-3-yl)-1,3-dioxoisoindolin-5-yl)-[3,3'-biazetidine]-1-carbonyl)phenyl)-3-methyl-2,8-diazaspiro[4.5]decan-2-yl)benzonitrile [Compound 42] | 79% | >95% | >95%
2-chloro-4-((3S)-8-(4-(4-(1-(2-(2,6-dioxopiperidin-3-yl)-1,3-dioxoisoindolin-5-yl)piperidin-4-yl)piperazine-1-carbonyl)phenyl)-3-methyl-2,8-diazaspiro[4.5]decan-2-yl)benzonitrile [Compound 41] | 78% | >95% | >95%
